Measured values as given in FireProtDB (doi:10.1093/protein/11.5.377).

Conditions: Homo sapiens, Thermal, DSC, Sodium phosphate-HCl 0.05 M, reversible: no, whole UniProt chain shown; for unfolding free energy: 25 °C

B1: Ferritin light chain wild type, P02792 (protein)
chain: MSSQIRQNYSTDVEAAVNSLVNLYLQASYTYLSLGFYFDRDDVALEGVSHFFRELAEEKREGYERLLKMQNQRGGRALFQDIKKPAEDEWGKTPDAMKAAMALEKKLNQALLDLHALGSARTDPHLCDFLETHFLDEEVKLIKKMGDHLTNLHRLGGPEAGLGEYLFERLTLKHD
pH 2
  unfolding free energy: 2.51 kcal/mol
  unfolding enthalpy (calorimetric): 70.3 kcal/mol and 40.4 kcal/mol
  unfolding enthalpy (van 't Hoff): 41.7 kcal/mol and 40.4 kcal/mol
pH 2.2
  Tm: 53.1 °C
  unfolding enthalpy (calorimetric): 86.3 kcal/mol
  unfolding enthalpy (van 't Hoff): 86.9 kcal/mol
pH 2.4
  unfolding free energy: 9.62 kcal/mol
  unfolding enthalpy (calorimetric): 103 kcal/mol and 40.6 kcal/mol
  unfolding enthalpy (van 't Hoff): 105 kcal/mol and 44.1 kcal/mol
pH 2.8
  unfolding free energy: 11.6 kcal/mol
  unfolding enthalpy (calorimetric): 106 kcal/mol and 41.1 kcal/mol

Several values for one entry are separate records, joined by “and”; a condition that tells them apart may be missing. Equal entries are not always repeated.
